Results as given in BindingDB's records for doi:10.1016/0014-2999(93)90488-4 (Maryland Psychiatric Research Center, 1993).

Amino acid sequences for entries named in this document (tags omitted).
UniProt P14416, whole entry: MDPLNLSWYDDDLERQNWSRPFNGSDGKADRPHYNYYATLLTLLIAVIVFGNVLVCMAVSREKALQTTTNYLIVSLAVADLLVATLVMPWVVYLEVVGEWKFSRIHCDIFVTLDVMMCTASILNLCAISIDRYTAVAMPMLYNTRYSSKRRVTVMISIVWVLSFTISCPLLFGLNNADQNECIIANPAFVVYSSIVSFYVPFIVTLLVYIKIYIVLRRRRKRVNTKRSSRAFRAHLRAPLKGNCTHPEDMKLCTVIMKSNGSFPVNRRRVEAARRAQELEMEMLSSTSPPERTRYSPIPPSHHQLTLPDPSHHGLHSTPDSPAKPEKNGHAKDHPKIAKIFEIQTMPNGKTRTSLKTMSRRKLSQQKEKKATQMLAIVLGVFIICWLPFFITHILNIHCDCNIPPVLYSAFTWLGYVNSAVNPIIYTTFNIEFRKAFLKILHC

Biological target: D(2) dopamine receptor (Homo sapiens, UniProt P14416)

Row | Compound | Ki
1 | CCN1CCC[C@H]1CNC(=O)c1c(O)c(Cl)cc(Cl)c1OC [3,5-Dichloro-N-(1-ethyl-pyrrolidin-2-ylmethyl)-2-hydroxy-6-methoxy-benzamide (raclopride)] | 2 nM
2 | CCCN1CCCC(c2cccc(O)c2)C1 (configuration not stated) [CAS_85976-54-1] | 346 nM
